## Yeast mating assay 2: variants of the scFv Ab-91

Binding partner: SARS-CoV-2 spike HR2 peptide, sequence PDVDLGDISGINAS.

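The parent was found by panning a naive human phage display library on the peptide. In library AAYL51, one, two or three CDR residues were substituted; doubles and triples were drawn at random. The assay is AlphaSeq: two haploid yeast populations carry antibody and antigen on their surface. Pairs that bind mate more often; barcode pairs of the diploids are counted by sequencing. Scores were corrected for input abundance and mapped to Kd with protein pairs of known affinity run in the same pool. There are three technical replicates.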

The variants keep the light chain, the linker and the frameworks of Ab-91 (scFv order VL, a 15-residue (Gly4Ser)3 linker, VH).
VL: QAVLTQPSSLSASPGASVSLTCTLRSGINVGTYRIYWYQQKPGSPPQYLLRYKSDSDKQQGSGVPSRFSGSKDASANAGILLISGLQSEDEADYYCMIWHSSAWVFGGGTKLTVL
VH: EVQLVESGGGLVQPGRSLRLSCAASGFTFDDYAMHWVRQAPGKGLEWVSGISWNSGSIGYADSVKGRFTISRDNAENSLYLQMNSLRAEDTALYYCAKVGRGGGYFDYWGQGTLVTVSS

Variants are written as CDR1, CDR2 and CDR3 of the heavy chain (limits as in the source). Parent: GFTFDDYAMH, GISWNSGSIGYADSVK, VGRGGGYFDY.
Values are log10 of the apparent Kd in nM; lower means stronger binding.
"ND" marks a missing value. The strain was present, yet no cells mated with the target were sequenced in that replicate, which points to weak or no binding.
Three control strains display no target. For library AAYL51, 21% of the pairings with them gave a signal, with a median of 4.54 and one signal in twenty below 3.26, so weak values seen in few replicates may be background. The control count says in how many pairings with the empty strains this scFv gave a signal, with their mean in brackets.

CDR-H1,CDR-H2,CDR-H3,log10 Kd (nM) by replicate,empty controls
GFTFDDYAQH,GISWGSGSFGYADSVK,VGRGGGYFDY,ND / ND / 5.64,5 of 9 (5.04)
GFTFDDYAMH,GGSWNIGSIGYADKVK,VGRGGGYFDY,5.49 / 5.77 / ND,7 of 9 (5.50)
GFTFDDYAMH,MISWNSHSIGYADSAK,VGRGGGYFDY,4.00 / ND / ND,2 of 9 (3.60)
GFTFDVYAMH,VISWNSGSIGYADSVK,VFRGGGYFDY,ND / ND / ND,0 of 9
GFFFRDYAMH,GISWNSGSIGYADSVK,VGRGGGWFDY,1.39 / 1.32 / 0.68,5 of 9 (4.68)
IFTFDDYKMH,GISWNSGSIGYADSVK,VGRGGGEFDY,5.68 / 5.11 / 4.17,7 of 9 (4.75)
GFTFDTYAMH,GQSWNSGSIGYADSVK,RGRGGGYFDY,4.01 / 4.74 / ND,2 of 9 (4.39)
GFTFDDYAMH,GISWNSGSIGYWDSVK,VGRGGGYFQY,4.66 / 6.25 / 5.10,6 of 9 (5.24)
GFTFDDYAGH,GISWNSGSIGYADSVK,QGGGGGYFDY,ND / ND / ND,0 of 9
GFTFDDYAMH,GIKWNSGSIGYADSVK,TGRGGCYFDY,4.54 / ND / ND,1 of 9 (4.27)
GFTFDDRAMH,GISWNSGSIGYADSVG,VGRGGGYWDY,4.71 / ND / ND,2 of 9 (4.35)
GFTFDDYAMH,GIMWNSGSIGYADSVL,VGRGGGDFDY,3.60 / 4.95 / ND,3 of 9 (4.69)
GFTFDDYAMC,GIYWNSGSIGYADSVK,VGRGGGYFDY,ND / ND / ND,0 of 9
GFTFDHYAMH,GISWNEGSIGYADSVK,VKRGGGYFDY,4.31 / ND / ND,0 of 9
GFTFDDYAMH,GISWNSFSIPYADSVK,VGRGGVYFDY,4.59 / 5.24 / 5.15,4 of 9 (4.76)
GFTFEDYAMH,GISWNSGSIGYHDSPK,VGRGGGYFDY,4.10 / ND / ND,1 of 9 (3.55)
HFTWDDYAMH,GISWNSGSPGYADSVK,VGRGGGYFDY,ND / ND / ND,0 of 9
GFTFDNYAMH,GISWWSGSIGYADSVK,VGRGGGYFDY,3.82 / 2.75 / 2.88,2 of 9 (4.02)
GRTFDDYAPH,GISWNSGSIGYADSVK,VGRGTGYFDY,ND / ND / 4.55,3 of 9 (4.81)
GGTFDDYAKH,GISWNSGEIGYADSVK,VGRGGGYFDY,ND / ND / ND,4 of 9 (4.93)
GFTFDDYAMH,GISWNSGSIGYADSVK,VNKVGGYFDY,4.06 / ND / ND,0 of 9
GFTFDDYAMH,GISWNSGSIGYACSVK,VGRAGGYFDY,ND / ND / ND,0 of 9
GFTFDDYAMH,GISWNSGSINYADSHK,VGRGGGYFNY,ND / ND / ND,1 of 9 (5.27)
GFTFDDYAMH,GISWNSGSIGYADSVK,VPRGGGYFDY,2.11 / 2.27 / 2.01,1 of 9 (3.86)
KFTFDDYAMH,GISWNSGKIGYADSVK,VQRGGGYFDY,5.60 / 4.23 / ND,6 of 9 (4.85)
GFTFDDYAMH,GISINSGSIGYAISVK,VGRGGGYFDP,ND / ND / ND,0 of 9
GFTFDDYAMN,GISWNSGSIGYADSVK,VGRGVGYFDN,ND / ND / ND,0 of 9
GFTFDDYAMH,GISWNDGSIGYADSVK,VGRGGGYGTY,ND / ND / ND,0 of 9
GFRFDDYAMH,GISWNSWSIGYMDSVK,VGRGGGYFDY,ND / ND / ND,0 of 9
GFTPDDYAMH,GISWNSGPIMYADSVK,VGRGGGYFDY,ND / ND / ND,1 of 9 (3.92)
GFTFDWYAMH,GISWDSGSIGYADSVK,VGRGGGYFGY,ND / 3.25 / ND,0 of 9
GFTFADYAMH,TISWNSGSIGYADSVY,VGRGGGYFDY,ND / ND / ND,1 of 9 (4.49)
GFTFDDYAMH,DISWNSGSIGYADSVL,VQRGGGYFDY,4.62 / ND / ND,5 of 9 (4.11)
GFTFDDGAMH,GISWNSGSIGYADSVK,VHRGGGYFDY,5.21 / ND / ND,1 of 9 (4.73)
LFTFDDYAMH,GISWNSGSIGYAFSVK,VGRGDGYFDY,ND / ND / ND,0 of 9
GFTFDDYAMH,GISVNSGSIGYTDSVK,VGRGGGYHDY,ND / ND / ND,0 of 9

From the list, the first 6 with no signal in any replicate:

CDR-H1,CDR-H2,CDR-H3,log10 Kd (nM) by replicate,empty controls
GFTFDVYAMH,VISWNSGSIGYADSVK,VFRGGGYFDY,ND / ND / ND,0 of 9
GFTFDDYAGH,GISWNSGSIGYADSVK,QGGGGGYFDY,ND / ND / ND,0 of 9
GFTFDDYAMC,GIYWNSGSIGYADSVK,VGRGGGYFDY,ND / ND / ND,0 of 9
HFTWDDYAMH,GISWNSGSPGYADSVK,VGRGGGYFDY,ND / ND / ND,0 of 9
GGTFDDYAKH,GISWNSGEIGYADSVK,VGRGGGYFDY,ND / ND / ND,4 of 9 (4.93)
GFTFDDYAMH,GISWNSGSIGYACSVK,VGRAGGYFDY,ND / ND / ND,0 of 9

From the AlphaSeq antibody data of Engelhart et al. 2022 (doi:10.1038/s41597-022-01779-4), copy in the FLAb collection.